In BigSolDB 2.1:

Conditions: in water, 298 K

Structure (SMILES): O=S(=O)(Nc1cccnc1Cl)c1ccccc1
- solubility (mole fraction): 3.12e-06
